Laboratory results from the NIST ThermoML archive (doi:10.1021/acs.jced.7b00945).

Assay: refractive index (Na D-line) (dimensionless); wn = mass fraction of the nth substance listed
Settings: 303 K, 100 kPa, Liquid, Standard Abbe refractometry

OCCOCCOCCOCCO [tetraethylene glycol] + O
Settings | refractive index
w2 = 0.1 | 1.44579
w2 = 0.21 | 1.43414
w2 = 0.3 | 1.42239
w2 = 0.4 | 1.40949
w2 = 0.5 | 1.39626
w2 = 0.6 | 1.38394
w2 = 0.7 | 1.3693
w2 = 0.79 | 1.35757
w2 = 0.89 | 1.34468
